ChEMBL document CHEMBL1145020, “Synthesis and structure-activity relationships of 6,7-disubstituted 4-anilinoquinoline-3-carbonitriles. The design of an orally active, irreversible inhibitor of the tyrosine kinase activity of the epidermal growth factor receptor (EGFR) and the human epidermal growth factor receptor-2 (HER-2)” (J Med Chem, 2003)

By UniProt entry, the sequences of proteins in these tests, tags left out.
UniProt P00533, whole entry: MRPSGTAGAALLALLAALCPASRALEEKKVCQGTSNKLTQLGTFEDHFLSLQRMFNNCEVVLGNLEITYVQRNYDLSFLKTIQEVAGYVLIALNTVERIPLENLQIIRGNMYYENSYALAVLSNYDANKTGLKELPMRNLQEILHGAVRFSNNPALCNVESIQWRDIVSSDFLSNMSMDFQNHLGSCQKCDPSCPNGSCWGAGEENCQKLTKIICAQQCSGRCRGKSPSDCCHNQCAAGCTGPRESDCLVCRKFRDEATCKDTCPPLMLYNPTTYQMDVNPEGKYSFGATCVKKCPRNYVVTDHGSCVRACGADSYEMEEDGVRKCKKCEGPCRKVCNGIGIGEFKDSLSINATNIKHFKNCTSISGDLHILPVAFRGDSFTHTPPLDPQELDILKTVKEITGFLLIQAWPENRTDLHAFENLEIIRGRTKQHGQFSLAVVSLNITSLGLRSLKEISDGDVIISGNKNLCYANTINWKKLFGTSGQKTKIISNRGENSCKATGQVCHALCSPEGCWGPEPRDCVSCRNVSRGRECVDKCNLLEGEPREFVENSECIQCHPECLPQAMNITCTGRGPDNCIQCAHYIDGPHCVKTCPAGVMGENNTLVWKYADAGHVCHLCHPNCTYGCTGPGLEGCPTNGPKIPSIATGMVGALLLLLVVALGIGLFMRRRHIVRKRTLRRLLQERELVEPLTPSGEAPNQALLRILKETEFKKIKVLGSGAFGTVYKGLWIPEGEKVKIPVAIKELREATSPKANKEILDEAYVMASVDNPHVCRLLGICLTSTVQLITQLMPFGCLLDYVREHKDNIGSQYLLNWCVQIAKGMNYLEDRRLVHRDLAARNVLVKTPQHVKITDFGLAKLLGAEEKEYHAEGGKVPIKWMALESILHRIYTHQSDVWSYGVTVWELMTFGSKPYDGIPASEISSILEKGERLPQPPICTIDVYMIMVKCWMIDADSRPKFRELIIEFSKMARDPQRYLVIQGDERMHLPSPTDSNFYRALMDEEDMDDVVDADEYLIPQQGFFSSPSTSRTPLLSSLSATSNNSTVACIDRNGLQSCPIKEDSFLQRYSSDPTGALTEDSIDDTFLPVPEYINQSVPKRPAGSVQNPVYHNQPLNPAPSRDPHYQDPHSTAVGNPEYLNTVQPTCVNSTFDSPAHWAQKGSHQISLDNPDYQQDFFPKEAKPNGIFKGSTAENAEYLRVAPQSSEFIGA
UniProt P04626, whole entry: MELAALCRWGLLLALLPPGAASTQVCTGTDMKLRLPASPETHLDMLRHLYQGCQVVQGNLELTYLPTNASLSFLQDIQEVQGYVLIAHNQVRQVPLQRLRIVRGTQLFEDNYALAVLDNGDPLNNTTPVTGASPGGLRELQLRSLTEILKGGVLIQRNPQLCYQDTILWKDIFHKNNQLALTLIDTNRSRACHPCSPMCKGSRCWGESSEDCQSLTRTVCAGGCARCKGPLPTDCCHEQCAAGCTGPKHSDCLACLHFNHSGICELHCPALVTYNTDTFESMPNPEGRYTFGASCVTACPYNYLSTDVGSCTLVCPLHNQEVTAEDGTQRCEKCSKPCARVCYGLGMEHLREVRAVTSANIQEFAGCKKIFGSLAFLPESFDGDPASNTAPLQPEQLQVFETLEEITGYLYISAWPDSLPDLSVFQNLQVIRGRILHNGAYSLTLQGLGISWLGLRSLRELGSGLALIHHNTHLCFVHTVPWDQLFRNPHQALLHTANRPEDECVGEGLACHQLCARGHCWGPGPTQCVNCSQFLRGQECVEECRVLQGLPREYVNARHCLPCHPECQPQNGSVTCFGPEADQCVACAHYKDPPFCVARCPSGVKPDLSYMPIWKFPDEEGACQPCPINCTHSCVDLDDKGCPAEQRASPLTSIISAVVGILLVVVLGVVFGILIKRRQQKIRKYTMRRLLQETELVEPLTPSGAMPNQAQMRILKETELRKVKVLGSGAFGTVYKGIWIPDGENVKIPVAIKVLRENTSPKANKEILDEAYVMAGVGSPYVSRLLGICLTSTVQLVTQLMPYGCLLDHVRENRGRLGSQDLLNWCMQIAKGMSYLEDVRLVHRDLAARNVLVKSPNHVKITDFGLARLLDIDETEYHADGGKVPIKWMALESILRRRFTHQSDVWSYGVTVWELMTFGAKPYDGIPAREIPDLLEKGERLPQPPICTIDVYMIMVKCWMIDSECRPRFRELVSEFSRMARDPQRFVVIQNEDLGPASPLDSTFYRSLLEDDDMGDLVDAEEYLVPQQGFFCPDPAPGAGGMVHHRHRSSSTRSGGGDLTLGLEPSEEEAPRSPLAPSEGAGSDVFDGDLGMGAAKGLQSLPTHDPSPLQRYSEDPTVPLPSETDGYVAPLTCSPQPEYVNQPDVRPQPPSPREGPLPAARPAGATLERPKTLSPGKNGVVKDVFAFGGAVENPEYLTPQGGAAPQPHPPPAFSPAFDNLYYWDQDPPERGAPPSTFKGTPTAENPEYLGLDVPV

Tests used:
A-431 = test: Concentration required to inhibit growth of human carcinoma epidermoid (A431) cell line; type: functional, cell-based
SW-620 = test: Concentration required to inhibit growth of human carcinoma colon (SW620) cell line; type: functional, cell-based
[1] = molecular target: Epidermal growth factor receptor (Homo sapiens, UniProt P00533)
[2] = molecular target: Receptor tyrosine-protein kinase erbB-2 (Homo sapiens, UniProt P04626); test: Concentration required to inhibit autophosphorylation of cytoplasmic domain of human epidermal growth factor receptor-2

| Compound | IC50 (A-431) [nM] | IC50 (SW-620) [nM] | IC50 [1] [nM] | IC50 [2] [nM] |
| --- | --- | --- | --- | --- |
| COc1cc2ncc(C#N)c(Nc3ccc(F)c(Cl)c3)c2cc1NC(=O)/C=C/C(C)N(C)C (stereo not given) | 430 | – | – | – |
| C/C=C/C(=O)Nc1cc2c(Nc3ccc(F)c(Cl)c3)c(C#N)cnc2cc1OCC | 1250 | 7460 | – | – |
| COc1cc(NC(=O)/C=C/CN2CCOCC2)cc2c(Nc3cccc(Br)c3)c(C#N)cnc12 | 2220 | – | – | – |
| COc1cc2ncc(C#N)c(Nc3ccc(F)c(Cl)c3)c2cc1NC(=O)/C=C/C(C)N1CCOCC1 (stereo not given) | 590 | – | 10600 | – |
| CCN(CC)C(C)/C=C/C(=O)Nc1cc2c(Nc3ccc(F)c(Cl)c3)c(C#N)cnc2cc1OC (stereo not given) | 380 | – | – | – |
| C/C=C/C(=O)Nc1ccc2ncc(C#N)c(Nc3cccc(Br)c3)c2c1 | – | – | – | 4500 |
| CN(C)C/C=C/C(=O)Nc1cc2c(Nc3ccc(F)c(Cl)c3)c(C#N)cnc2cc1OC(F)(F)F | 470 | – | 2640 | – |
